Assay results published in patent USRE47739E1, “2-(pyridin-2-ylamino)-pyrido[2,3-D]pyrimidin-7-ones” (Warner-Lambert Company LLC, priority 2002, dated 2019).
Counter-ions that a name gives are not always drawn.

Target: Cdk2/Cyclin A (Homo sapiens, UniProt P24941)
Test: Assay for Inhibition of Cdk2/Cyclin A
Type: biochemical
Details: 12 mM ATP (so in the source), retinoblastoma protein substrate, 25° C., 15 minutes
Procedure: The assays were carried out as described below.
Assay for Inhibition of Cdk2/Cyclin A
Cdk2 enzyme assays for IC50 determinations and kinetic evaluation are performed as follows. 96-well filter plates (Millipore MADVN6550) are used. […] All components except the ATP are added to the wells, and the plate is placed on a plate mixer for 2 minutes. The reaction is initiated by addition of [^32P]ATP, and the plate is incubated at 25° C. for 15 minutes. The reaction is terminated by addition of 0.1 mL 20% TCA. The plate is kept at 4° C. for at least 1 hour to allow the substrate to precipitate. The wells are then washed five times with 0.2 mL 10% TCA, and ^32P incorporation is determined with a beta plate counter (Wallac Inc., Gaithersburg, Md.).

Question: Which IC50 does the source give for `CCOC(=O)c1cc2cnc(Nc3ccc(N4CCNCC4)cn3)nc2n(C2CCCC2)c1=O` [Example 7, 8-Cyclopentyl-7-oxo-2-(5-piperazin-1-yl-pyridin-2-ylamino)-7,8-dihydro-pyrido[2,3-d]pyrimidine-6-carboxylic acid ethyl ester hydrochloride] here?
Answer: > 5 µM

Question: Which IC50 does the source give for `Cc1c(Br)c(=O)n(C2CCCC2)c2nc(Nc3ccc(N4CCNCC4)cn3)ncc12` [Example 15, 6-Bromo-8-cyclopentyl-5-methyl-2-(5-piperizin-1-yl-pyridin-2-ylamino)-8H-pyrido[2,3-d]pyrimidin-7-one] here?
Answer: > 5 µM

Question: How did the IC50 turn out when `O=c1c(F)cc2cnc(Nc3ccc(N4CCNCC4)cn3)nc2n1C1CCCC1` [Example 18, 8-Cyclopentyl-6-fluoro-2-(5-piperazin-1-yl-pyridin-2-ylamino)-8H-pyrido[2,3-d]pyrimidin-7-one hydrochloride] was run?
Answer: > 5 µM

Question: Which IC50 does the source give for `CC(C)COc1cc2cnc(Nc3ccc(N4CCNCC4)cn3)nc2n(C2CCCC2)c1=O` [Example 22, 8-Cyclopentyl-6-isobutoxy-2-(5-piperazin-1-yl-pyridin-2-ylamino)-8H-pyrido[2.3-d]pyrimidin-7-one hydrochloride] here?
Answer: > 5 µM

Question: How did the IC50 turn out when `O=c1c(CO)cc2cnc(Nc3ccc(N4CCNCC4)cn3)nc2n1C1CCCC1` [Example 29, 8-Cyclopentyl-6-hydroxymethyl-2-(5-piperazin-1-yl-pyridin-2-ylamino)-8H-pyrido[2,3-d]pyrimidin-7-one hydrochloride] was run?
Answer: > 5 µM

Question: How did the IC50 turn out when `CC(=O)c1cc2cnc(Nc3ccc(N4CCNCC4)cn3)nc2n(C2CCCC2)c1=O` [Example 33, 6-Acetyl-8-cyclopentyl-2-(5-piperazin-1-yl-pyridin-2-ylamino)-8H-pyrido[2.3-d]pyrimidin-7-one hydrochloride] was run?
Answer: > 5 µM

Question: For `Cc1c(Br)c(=O)n(C2CCCC2)c2nc(Nc3ccccn3)ncc12` [Example 37, 6-bromo-8-cyclopentyl-5-methyl-2-(pyridin-2-ylamino)-8H-pyrido[2,3-d]pyrimidin-7-one], which IC50 is on record?
Answer: > 5 µM

Question: With `O=c1c(Br)cc2cnc(Nc3ccccn3)nc2n1C1CCCC1` [Example 38, 6-Bromo-8-cyclopentyl-2-(Pyridin-2-ylamino)-8H-pyrido[2,3-]pyrimidin-7-one] as the compound, how does the IC50 read?
Answer: > 5 µM

Question: `CCOCCOc1cc2cnc(Nc3ccc(N4CCNCC4)cn3)nc2n(C2CCCC2)c1=O` [Example 53, 8-Cyclopentyl-6-(2-ethoxy-ethoxy)-2-(5-piperazin-1-yl-pyridin-2-ylamino)-8H-pyrido[2,3-d]pyrimidin-7-one] was tested. Which IC50 did it give?
Answer: > 5 µM

Question: With `COCCN(CCOC)c1ccc(Nc2ncc3c(C)c(Br)c(=O)n(C4CCCC4)c3n2)nc1` [Example 54, 2-{5-[Bis-(2-methoxy-ethyl)-amino]-pyridin-2-ylamino}-6-bromo-8-cyclopentyl-5-methyl-8H-pyrido[2,3-d]pyrimidin-7-one] as the compound, how does the IC50 read?
Answer: > 5 µM

Question: How did the IC50 turn out when `CC(C)n1c(=O)ccc2cnc(Nc3ccc(N4CCNCC4)cn3)nc21` [Example 57, 8-isopropyl-2-(5-piperazin-1-yl-pyridin-2-ylamino)-8H-pyrido[2.3-d]pyrimidin-7-one] was run?
Answer: > 5 µM

Question: For `O=c1ccc2cnc(Nc3ccc(N4CCNCC4)cn3)nc2n1C1CC1` [Example 64, 8-cyclopropyl-2-(5-piperazin-1-yl-pyridin-2-ylamino)-8H-pyrido[2,3-d]pyrimidin-7-one], which IC50 is on record?
Answer: > 5 µM

Question: For `Cc1c(Br)c(=O)n(C2CCCC2)c2nc(Nc3ccc(N4CCN(C)CC4)cn3)ncc12` [Example 70, 6-Bromo-8-cyclopentyl-5-methyl-2-[5-(4-methyl-piperazin-1-yl)-pyridin-2-ylamino]-8H-pyrido[2,3-d]pyrimidin-7-one], which IC50 is on record?
Answer: > 5 µM

Question: For `CC(=O)c1c(C)c2cnc(Nc3ccc(N4CCN(C)CC4)cn3)nc2n(C2CCCC2)c1=O` [Example 72, 6-Acetyl-8-cyclopentyl-5-methyl-2-[5-(4-methyl-piperazin-1-yl)-pyridin-2-ylamino]-8H-pyrido[2,3-d]pyrimidin-7-one], which IC50 is on record?
Answer: > 5 µM

Question: With `CC(=O)c1c(C)c2cnc(Nc3ccc(N4CCC(N)C4)cn3)nc2n(C2CCCC2)c1=O` (stereo not shown) [Example 74, 6-Acetyl-2-[5-(3-amino-pyrrolidin-1-yl)-pyridin-2-ylamino]-8-cyclopentyl-5-methyl-8H-pyrido[2,3-d]pyrimidin-7-one] as the compound, how does the IC50 read?
Answer: > 5 µM

Question: With `Cc1c(Br)c(=O)n(C2CCCC2)c2nc(Nc3ccc(N4CCC(O)CC4)cn3)ncc12` [Example 75, 6-Bromo-8-cyclopentyl-2-(4-hydroxy-3,4,5,6-tetrahydro-2H-[1,3′]bipyridinyl-6′-ylamino)-5-methyl-8H-pyrido[2,3-d]pyrimidin-7-one] as the compound, how does the IC50 read?
Answer: > 5 µM

Question: `CC(=O)c1c(C)c2cnc(Nc3ccc(N4CCC(O)CC4)cn3)nc2n(C2CCCC2)c1=O` [Example 77, 6-Acetyl-8-cyclopentyl-2-(4-hydroxy-3,4,5,6-tetrahydro-2H-[1,3′]bipyridinyl-6′-ylamino)-5-methyl-8H-pyrido[2,3-d]pyrimidin-7-one] was tested. Which IC50 did it give?
Answer: > 5 µM

Question: With `CC(=O)c1c(C)c2cnc(Nc3ccc(N4CCCNCC4)cn3)nc2n(C2CCCC2)c1=O` [Example 81, 6-Acetyl-8-cyclopentyl-2-(5-[1,4]diazepan-1-yl-pyridin-2-ylamino)-5-methyl-8H-pyrido[2,3-d]pyrimidin-7-one] as the compound, how does the IC50 read?
Answer: > 5 µM

Question: For `CC(=O)c1c(C)c2cnc(Nc3ccccn3)nc2n(C2CCCC2)c1=O` [Example 82, 6-Acetyl-8-cyclopentyl-5-methyl-2-(pyridin-2-ylamino)-8H-pyrido[2,3-d]pyrimindin-7-one], which IC50 is on record?
Answer: > 5 µM

Question: `Cc1cc(=O)n(C2CCCC2)c2nc(Nc3ccc(N4CCNCC4)cn3)ncc12` [Example 84, 8-Cyclopentyl-5-methyl-2-(5-piperazin-4-yl-pyridin-2-ylamino)-8H-pyrido[2,3-d]pyrimidin-7-one] was tested. Which IC50 did it give?
Answer: > 5 µM

Question: `CC(=O)c1c(C)c2cnc(Nc3ccc(N4CCNC(C)(C)C4)cn3)nc2n(C2CCCC2)c1=O` [Example 90, 6-Acetyl-8-cyclopentyl-2-[5-(3,3-dimethyl-piperazin-1-yl)-pyridin-2-ylamino]-5-methyl-8H-pyrido[2,3-d]pyrimidin-7-one] was tested. Which IC50 did it give?
Answer: > 5 µM

Question: For `Cc1c(Br)c(=O)n(C2CCCC2)c2nc(Nc3ccc(N4CC(C)NC(C)C4)cn3)ncc12` (stereo not shown) [Example 93, 6-Bromo-8-cyclopentyl-2-[5-(3,5-dimethyl-piperazin-1-yl)-pyridin-2-ylamino]-5-methyl-8H-pyrido[2,3-d]pyrimidin-7-one], which IC50 is on record?
Answer: > 5 µM

Question: How did the IC50 turn out when `CC(=O)c1c(C)c2cnc(Nc3ccc(N4CC(C)NC(C)C4)cn3)nc2n(C2CCCC2)c1=O` (stereo not shown) [Example 95, 6-Acetyl-8-cyclopentyl-2-[5-(3,5-dimethyl-piperazin-1-yl)-pyridin-2-ylamino]-5-methyl-8H-pyrido[2,3-d]pyrimidin-7-one] was run?
Answer: > 5 µM

Question: For `Cc1c(Br)c(=O)n(C2CCCC2)c2nc(Nc3ccc(N4CCOCC4)cn3)ncc12` [Example 98, 6-Bromo-8-cyclopentyl-5-methyl-2-(5-morpholin-4-yl-pyridin-2-ylamino)-8H-pyrido[2,3-d]pyrimidin-7-one], which IC50 is on record?
Answer: > 5 µM

Question: Which IC50 does the source give for `CC(=O)c1c(C)c2cnc(Nc3ccc(N4CCOCC4)cn3)nc2n(C2CCCC2)c1=O` [Example 100, 6-Acetyl-8-cyclopentyl-5-methyl-2-(5-morpholin-4-yl-pyridin-2-ylamino)-8H-pyrido[2,3-d]pyrimidin-7-one] here?
Answer: > 5 µM

Question: Which IC50 does the source give for `Cc1c(Br)c(=O)n(C2CCCC2)c2nc(Nc3ccc(N4CCCCC4)cn3)ncc12` [Example 103, 6-Bromo-8-cyclopentyl-5-methyl-2-(3,4,5,6-tetrahydro-2H-[1,3]bipyridinyl-6′-ylamino)-8H-pyrido[2,3-d]pyrimidin-7-one] here?
Answer: > 5 µM

Question: Which IC50 does the source give for `CC(=O)c1c(C)c2cnc(Nc3ccc(N4CCCCC4)cn3)nc2n(C2CCCC2)c1=O` [Example 105, 6-Acetyl-8-cyclopentyl-5-methyl-2-(3,4,5,6-tetrahydro-2H-[1,3′]bipyridinyl-6′-ylamino)-8H-pyrido[2,3-d]pyrimidin-7-one] here?
Answer: > 5 µM

Question: For `CCOCCc1cc2cnc(Nc3ccc(N4CCNCC4)cn3)nc2n(C2CCCC2)c1=O` [Example 108, 8-Cyclopentyl-6-(2-ethoxy-ethyl)-2-(5-piperazin-1-yl-pyridin-2-ylamino)-8H-pyrido[2,3-d]pyrimidin-7-one], which IC50 is on record?
Answer: > 5 µM

Question: Which IC50 does the source give for `COCCOCc1cc2cnc(Nc3ccc(N4CCNCC4)cn3)nc2n(C2CCCC2)c1=O` [Example 112, 8-Cyclopentyl-6-(2-methoxy-ethoxymethyl)-2-(5-piperazin-1-yl-pyridin-2-ylamino)-8H-pyrido[2,3-d]pyrimidin-7-one] here?
Answer: > 5 µM

Question: How did the IC50 turn out when `CCOCc1cc2cnc(Nc3ccc(N4CCNCC4)cn3)nc2n(C2CCCC2)c1=O` [Example 116, 8-Cyclopentyl-6-ethoxymethyl-2-(5-piperazin-1-yl-pyridin-2-ylamino)-8H-pyrido[2,3-d]pyrimidin-7-one] was run?
Answer: > 5 µM

Question: With `CC(=O)c1c(C)c2cnc(Nc3ccc(N4CC(C)OC(C)C4)cn3)nc2n(C2CCCC2)c1=O` (stereo not shown) [Example 130, 6-Acetyl-8-cyclopentyl-2-[5-(2,6-dimethyl-morpholin-4-yl)-pyridin-2-ylamino]-5-methyl-8H-pyrido[2,3-d]pyrimidin-7-one] as the compound, how does the IC50 read?
Answer: > 5 µM
